Several values for one entry are separate records, joined by “and”; a condition that tells them apart may be missing. Equal entries are not always repeated. The list shows a part of the results, in another mix than the full data. Activity calls are given as the source filed them. The call rests on the fitted dose curve; in most records, active means well fitted curve in the direction sought with a large enough effect in the repeat runs; inconclusive means weak or mixed curves; inactive means flat fitted curve, though single readings scatter.
Assay: qHTS assay to test for compound auto fluorescence at 590 nm (red) in HEK293 cells (AID 720679)
Conditions: red autofluorescence 540/590 nm, at 18.6 µM (top of the series)
Description: National Center for Advancing Translational Sciences [NCATS]
NIH Chemical Genomics Center [NCGC]
U.S. Environmental Protection Agency [EPA]
National Institutes of Environmental Health Sciences [NIEHS]
National Toxicology Program [NTP]
U.S. Food and Drug Administration [FDA]
Compound auto fluorescence often interferes with screening of the compound library against various biological targets and signaling pathways. Some of these compounds may have fluorophoric properties. Such properties may interfere with the assay outputs resulting in false positives and/or negatives. To decrease such complications and ensure the compound activities are relevant in terms of biological response, the Tox21 10K compound library was screened for auto fluorescence.
From the fluorophores used as reporter signals in our screening assays, the auto fluorescence equivalencies of compounds against three fluorophores have been evaluated: Triamterene, Fluorescein and Rose Bengal sodium for blue, green and red fluorescence, respectively. The fluorescence intensities were measured using Excitation/Emission wavelengths at 405/460nm, 485/535nm and 540/590nm for blue, green and red labels, respectively. This assay includes the red fluorescence data.
Tox21 Assay Protocol Summary:
2,000 HEK293 cells in 5 uL of culture medium containing 10% dialyzed FBS per well were dispensed into black wall/clear bottom 1536-well plates using a Multidrop Combi Dispenser (Thermo Scientific). The assay plates were incubated for 4-5 hr at 37C to allow cell attachment to the well bottom, followed by the transfer of 23 nL compound or DMSO vehicle by a pintool work station (Kalypsys, San Diego, CA). After the assay plates were incubated overnight at 37C and 5% CO2, fluorescence intensities in the assay plates were measured by an Envision (PerkinElmer, Shelton, CT) plate reader using three labels for measuring blue, green and red fluorescence at […] 460, 535 and 590nm respectively.
On the % scale 0 is the no-effect control and ±100 the full control effect.

Compound	fluorescence, % of fluorescent control
C/C1=C2N=C(/C=C3N=C(/C(C)=C4\[N-][C@@](C)([C@@H]5N=C1[C@](C)(CCC(=O)NC[C@@H](C)OP(=O)([O-])O[C@H]1[C@@H](O)[C@@H](n6cnc7cc(C)c(C)cc76)O[C@@H]1CO)[C@H]5CC(N)=O)[C@@](C)(CC(N)=O)[C@@H]4CCC(N)=O)[C@@](C)(CC(N)=O)[C@@H]\3CCC(N)=O)C(C)(C)[C@@H]/2CCC(N)=O.[C-]#N.[Co+3]	inactive: -1.2%

Same assay, conditions: red autofluorescence 540/590 nm, at 46 µM (top of the series)

Compound	fluorescence, % of fluorescent control
O=[N+]([O-])OCC(CO[N+](=O)[O-])(CO[N+](=O)[O-])CO[N+](=O)[O-]	inactive: -0.789%
OCCSCCO	inactive: -0.0624%
CC(C)OP(=O)(F)OC(C)C	inactive: 0.2%
CN(C)CCS	inactive: -0.169%
O=[N+]([O-])c1cccc([N+](=O)[O-])c1	inactive: -0.0004%
O=[N+]([O-])[O-].[NH4+]	inactive: -0.021%
CCOP(=O)(CC)Oc1ccc([N+](=O)[O-])cc1 (stereo not given)	inactive: -0.0077%
CC(C)N(CCCl)C(C)C	inactive: 0.0982%

Same assay, conditions: red autofluorescence 540/590 nm, at 91.3 µM (top of the series)

Compound	fluorescence, % of fluorescent control
O=[N+]([O-])OCC(CO[N+](=O)[O-])(CO[N+](=O)[O-])CO[N+](=O)[O-]	inactive: -0.321%
COP(C)(=O)OC	inactive: -0.109%
CP(=O)(O)OCCC[Si](O)(O)O	inactive: -0.137%
CCOP(=O)(CC)OCC	inactive: 0.454%
Cc1cccc([N+](=O)[O-])c1[N+](=O)[O-]	inactive: 0.91%
[NH4+].[O-][Cl+3]([O-])([O-])[O-]	inactive: 0.34%
Cc1ccc([N+](=O)[O-])cc1[N+](=O)[O-]	inactive: 0.175% and inactive: 0.246%
O=[N+]([O-])[O-].[NH4+]	inactive: -0.0708% and inactive: -0.571%
Cc1c([N+](=O)[O-])cccc1[N+](=O)[O-]	inactive: 0.0338% and inactive: 0.0323%
Cc1ccc([N+](=O)[O-])c([N+](=O)[O-])c1	inactive: -1.06%
COc1ccc([N+](=O)[O-])cc1[N+](=O)[O-]	inactive: -0.108%
CC(C)OP(C)(=O)OC(C)C	inactive: -0.136% and inactive: -0.0796%
CC(C)N(CCO)C(C)C	inactive: 0.336%

Same assay, conditions: red autofluorescence 540/590 nm, at 95.7 µM (top of the series)

Compound	fluorescence, % of fluorescent control
COP(C)(=O)OC	inactive: 0.157%
OCCSCCO	inactive: -0.378%
CCN(CC)CCCl	inactive: -0.0195%
O=[N+]([O-])c1cccc([N+](=O)[O-])c1	inactive: -0.959%
[NH4+].[O-][Cl+3]([O-])([O-])[O-]	inactive: -0.29%
Cc1ccc([N+](=O)[O-])c([N+](=O)[O-])c1	inactive: 0.113%
Nc1cc([N+](=O)[O-])cc([N+](=O)[O-])c1O	inactive: -0.524%
N=C(N)N[N+](=O)[O-]	inactive: -0.155%
